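Tested at 5 concentrations; 48 h exposure; 96-well plates; endpoints linearly interpolated, else capped at highest concentration. GI50 is the concentration that inhibits growth by half. TGI marks complete inhibition of growth.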
Legend:
Test in all cases: NCI anticancer screen, dose series, 48 h
[1] = tested on: 786-0 renal
[2] = tested on: A498 renal
[3] = tested on: A549 NSCLC
[4] = tested on: ACHN renal
[5] = tested on: BT-549 breast
[6] = tested on: CAKI-1 renal
[7] = tested on: CCRF-CEM leukemia
[8] = tested on: COLO 205 colon
[9] = tested on: DU-145 prostate
[10] = tested on: EKVX NSCLC
[11] = tested on: HCC-2998 colon
[12] = tested on: HCT-116 colon
[13] = tested on: HCT-15 colon
[14] = tested on: HL-60(TB) leukemia
[15] = tested on: HOP-62 NSCLC
[16] = tested on: HOP-92 NSCLC
[17] = tested on: HS 578T breast
[18] = tested on: HT29 colon
[19] = tested on: IGROV1 ovarian
[20] = tested on: KM12 colon
[21] = tested on: LOX IMVI melanoma
[22] = tested on: M14 melanoma
[23] = tested on: MALME-3M melanoma
[24] = tested on: MCF7 breast
[25] = tested on: MDA-MB-231 breast
[26] = tested on: MDA-MB-435
[27] = tested on: NCI-H226 lung
[28] = tested on: NCI-H23 lung
[29] = tested on: NCI-H460 lung
[30] = tested on: NCI/ADR-RES ovarian
[31] = tested on: OVCAR-3 ovarian
[32] = tested on: OVCAR-4 ovarian
[33] = tested on: OVCAR-5 ovarian
[34] = tested on: OVCAR-8 ovarian
[35] = tested on: PC-3 prostate
[36] = tested on: RXF 393 renal
[37] = tested on: SF-268 CNS
[38] = tested on: SF-295 CNS
[39] = tested on: SF-539 CNS
[40] = tested on: SK-MEL-2 melanoma
[41] = tested on: SK-MEL-28 melanoma
[42] = tested on: SK-MEL-5 melanoma
[43] = tested on: SK-OV-3 ovarian
[44] = tested on: SNB-19 CNS
[45] = tested on: SNB-75 CNS
[46] = tested on: SW-620 colon
[47] = tested on: T-47D breast
[48] = tested on: TK-10 renal
[49] = tested on: U251 CNS
[50] = tested on: UACC-257 melanoma
[51] = tested on: UACC-62 melanoma
[52] = tested on: UO-31 renal

For `CCOP(=O)(Nc1ccccc1CC)OCC`, which GI50 [1] is on record?
Its GI50 is > 100 µM.

What about the TGI [1] of the same molecule?
Its TGI is > 100 µM.

And the GI50 [2]?
Its GI50 is > 100 µM.

And the TGI [2]?
Its TGI is > 100 µM.

And the GI50 [3]?
Its GI50 is > 100 µM.

And the TGI [3]?
Its TGI is > 100 µM.

And the GI50 [4]?
Its GI50 is > 100 µM.

What about the TGI [4] of the same molecule?
Its TGI is > 100 µM.

And the GI50 [5]?
The GI50 was > 100 µM.

And the TGI [5]?
Its TGI is > 100 µM.

What about the GI50 [6] of the same molecule?
Its GI50 is > 100 µM.

And the TGI [6]?
The TGI was > 100 µM.

What about the GI50 [7] of the same molecule?
Its GI50 is > 100 µM.

What about the TGI [7] of the same molecule?
Its TGI is > 100 µM.

What about the GI50 [8] of the same molecule?
Its GI50 is > 100 µM.

What about the TGI [8] of the same molecule?
The TGI was > 100 µM.

And the GI50 [9]?
The GI50 was > 100 µM.

What about the TGI [9] of the same molecule?
The TGI was > 100 µM.

And the GI50 [10]?
The GI50 was > 100 µM.

And the TGI [10]?
Its TGI is > 100 µM.

And the GI50 [11]?
Its GI50 is > 100 µM.

And the TGI [11]?
The TGI was > 100 µM.

What about the GI50 [12] of the same molecule?
The GI50 was > 100 µM.

What about the TGI [12] of the same molecule?
Its TGI is > 100 µM.

And the GI50 [13]?
The GI50 was > 100 µM.

What about the TGI [13] of the same molecule?
Its TGI is > 100 µM.

And the GI50 [14]?
Its GI50 is 64.2 µM.

And the TGI [14]?
The TGI was > 100 µM.

What about the GI50 [15] of the same molecule?
The GI50 was > 100 µM.

What about the TGI [15] of the same molecule?
Its TGI is > 100 µM.

What about the GI50 [16] of the same molecule?
The GI50 was > 100 µM.

What about the TGI [16] of the same molecule?
The TGI was > 100 µM.

What about the GI50 [17] of the same molecule?
Its GI50 is > 100 µM.

And the TGI [17]?
The TGI was > 100 µM.

And the GI50 [18]?
The GI50 was > 100 µM.

And the TGI [18]?
Its TGI is > 100 µM.

And the GI50 [19]?
Its GI50 is > 100 µM.

And the TGI [19]?
The TGI was > 100 µM.

What about the GI50 [20] of the same molecule?
The GI50 was > 100 µM.

And the TGI [20]?
Its TGI is > 100 µM.

And the GI50 [21]?
The GI50 was > 100 µM.

What about the TGI [21] of the same molecule?
The TGI was > 100 µM.

And the GI50 [22]?
Its GI50 is > 100 µM.

And the TGI [22]?
Its TGI is > 100 µM.

And the GI50 [23]?
The GI50 was > 100 µM.

And the TGI [23]?
The TGI was > 100 µM.

What about the GI50 [24] of the same molecule?
Its GI50 is > 100 µM.

What about the TGI [24] of the same molecule?
The TGI was > 100 µM.

What about the GI50 [25] of the same molecule?
Its GI50 is > 100 µM.

And the TGI [25]?
The TGI was > 100 µM.

What about the GI50 [26] of the same molecule?
Its GI50 is > 100 µM.

What about the TGI [26] of the same molecule?
The TGI was > 100 µM.

What about the GI50 [27] of the same molecule?
The GI50 was > 100 µM.

What about the TGI [27] of the same molecule?
Its TGI is > 100 µM.

And the GI50 [28]?
Its GI50 is > 100 µM.

What about the TGI [28] of the same molecule?
Its TGI is > 100 µM.

And the GI50 [29]?
Its GI50 is > 100 µM.

What about the TGI [29] of the same molecule?
The TGI was > 100 µM.

What about the GI50 [30] of the same molecule?
Its GI50 is > 100 µM.

What about the TGI [30] of the same molecule?
Its TGI is > 100 µM.

And the GI50 [31]?
The GI50 was > 100 µM.

What about the TGI [31] of the same molecule?
Its TGI is > 100 µM.

What about the GI50 [32] of the same molecule?
Its GI50 is > 100 µM.

What about the TGI [32] of the same molecule?
Its TGI is > 100 µM.

And the GI50 [33]?
Its GI50 is > 100 µM.

What about the TGI [33] of the same molecule?
The TGI was > 100 µM.

And the GI50 [34]?
Its GI50 is > 100 µM.

And the TGI [34]?
The TGI was > 100 µM.

And the GI50 [35]?
Its GI50 is > 100 µM.

What about the TGI [35] of the same molecule?
The TGI was > 100 µM.

And the GI50 [36]?
Its GI50 is > 100 µM.

What about the TGI [36] of the same molecule?
The TGI was > 100 µM.

And the GI50 [37]?
Its GI50 is > 100 µM.

What about the TGI [37] of the same molecule?
The TGI was > 100 µM.

And the GI50 [38]?
Its GI50 is > 100 µM.

What about the TGI [38] of the same molecule?
The TGI was > 100 µM.

What about the GI50 [39] of the same molecule?
The GI50 was > 100 µM.

And the TGI [39]?
The TGI was > 100 µM.

What about the GI50 [40] of the same molecule?
The GI50 was > 100 µM.

And the TGI [40]?
The TGI was > 100 µM.

What about the GI50 [41] of the same molecule?
The GI50 was > 100 µM.

What about the TGI [41] of the same molecule?
Its TGI is > 100 µM.

What about the GI50 [42] of the same molecule?
Its GI50 is > 100 µM.

What about the TGI [42] of the same molecule?
The TGI was > 100 µM.

And the GI50 [43]?
The GI50 was > 100 µM.

What about the TGI [43] of the same molecule?
The TGI was > 100 µM.

What about the GI50 [44] of the same molecule?
The GI50 was 42.2 µM.

And the TGI [44]?
Its TGI is > 100 µM.

And the GI50 [45]?
The GI50 was > 100 µM.

And the TGI [45]?
The TGI was > 100 µM.

And the GI50 [46]?
Its GI50 is > 100 µM.

And the TGI [46]?
Its TGI is > 100 µM.

What about the GI50 [47] of the same molecule?
The GI50 was > 100 µM.

What about the TGI [47] of the same molecule?
Its TGI is > 100 µM.

What about the GI50 [48] of the same molecule?
The GI50 was > 100 µM.

What about the TGI [48] of the same molecule?
The TGI was > 100 µM.

What about the GI50 [49] of the same molecule?
The GI50 was > 100 µM.

What about the TGI [49] of the same molecule?
Its TGI is > 100 µM.

What about the GI50 [50] of the same molecule?
The GI50 was > 100 µM.

And the TGI [50]?
Its TGI is > 100 µM.

And the GI50 [51]?
The GI50 was > 100 µM.

And the TGI [51]?
The TGI was > 100 µM.

And the GI50 [52]?
The GI50 was > 100 µM.

And the TGI [52]?
Its TGI is > 100 µM.

— PubChem BioAssay (NCI)
